{
  "sequences": {"note": "Amino acid sequences for entries named in this document (tags omitted).", "UniProt P10938, whole entry": "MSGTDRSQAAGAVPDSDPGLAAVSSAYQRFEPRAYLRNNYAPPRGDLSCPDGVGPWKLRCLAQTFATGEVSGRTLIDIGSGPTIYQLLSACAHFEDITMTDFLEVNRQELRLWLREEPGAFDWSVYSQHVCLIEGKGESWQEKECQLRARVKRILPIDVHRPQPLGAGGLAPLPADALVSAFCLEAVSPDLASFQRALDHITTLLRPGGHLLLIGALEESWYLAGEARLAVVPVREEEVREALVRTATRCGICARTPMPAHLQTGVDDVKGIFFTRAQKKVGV"},
  "source": "patent US20090264384A1",
  "about": "“INDOLE, BENZIMIDAZOLE, AND BENZOLACTAM BORONIC ACID COMPOUNDS, ANALOGS THEREOF AND METHODS OF USE THEREOF” (Nuada, Inc., priority 2004, published 2009)",
  "target": "Phenylethanolamine-N-methyl transferase (Bos taurus, UniProt P10938)",
  "assay": "Phenylethanolamine-N-methyl transferase enzyme assay",
  "data": [
    {"compound": "CC(N)c1cccc(Cl)c1Cl", "note": "(centres unmarked)", "values": [
      {"measurement": "nH", "setting": "Hill coefficient", "value": 1.4},
      {"measurement": "IC50", "setting": "reference compound", "value": 39, "unit": "µM"}
    ]}
  ]
}
